Reference: PubChem BioAssay (NCI)
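Five compound concentrations were applied to cells in 96-well plates for 48 hours; endpoints were derived by simple linear interpolation of the resulting dose-response curve. TGI: concentration producing complete growth inhibition.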

Key:
Test in all cases: NCI anticancer screen, dose series, 48 h
NCI/ADR-RES ovarian = test system: NCI/ADR-RES ovarian
KM12 colon = test system: KM12 colon
OVCAR-3 ovarian = test system: OVCAR-3 ovarian
HS 578T breast = test system: HS 578T breast
U251 CNS = test system: U251 CNS
RPMI-8226 leukemia = test system: RPMI-8226 leukemia
HCT-15 colon = test system: HCT-15 colon
UO-31 renal = test system: UO-31 renal
SF-268 CNS = test system: SF-268 CNS
NCI-H226 lung = test system: NCI-H226 lung
BT-549 breast = test system: BT-549 breast
ACHN renal = test system: ACHN renal
CAKI-1 renal = test system: CAKI-1 renal
MCF7 breast = test system: MCF7 breast
MDA-N = test system: MDA-N
NCI-H522 lung = test system: NCI-H522 lung
EKVX NSCLC = test system: EKVX NSCLC
DU-145 prostate = test system: DU-145 prostate
SR leukemia = test system: SR leukemia
MDA-MB-435 = test system: MDA-MB-435
OVCAR-4 ovarian = test system: OVCAR-4 ovarian
TK-10 renal = test system: TK-10 renal
PC-3 prostate = test system: PC-3 prostate
HOP-92 NSCLC = test system: HOP-92 NSCLC
HOP-62 NSCLC = test system: HOP-62 NSCLC
HCC-2998 colon = test system: HCC-2998 colon
SN12C renal = test system: SN12C renal
SK-MEL-5 melanoma = test system: SK-MEL-5 melanoma
SK-OV-3 ovarian = test system: SK-OV-3 ovarian
SK-MEL-28 melanoma = test system: SK-MEL-28 melanoma
SNB-19 CNS = test system: SNB-19 CNS
NCI-H460 lung = test system: NCI-H460 lung
OVCAR-5 ovarian = test system: OVCAR-5 ovarian
OVCAR-8 ovarian = test system: OVCAR-8 ovarian
A498 renal = test system: A498 renal
SF-539 CNS = test system: SF-539 CNS
A549 NSCLC = test system: A549 NSCLC
SNB-75 CNS = test system: SNB-75 CNS
NCI-H322M lung = test system: NCI-H322M lung
HL-60(TB) leukemia = test system: HL-60(TB) leukemia
HT29 colon = test system: HT29 colon
MDA-MB-231 breast = test system: MDA-MB-231 breast
SK-MEL-2 melanoma = test system: SK-MEL-2 melanoma
LOX IMVI melanoma = test system: LOX IMVI melanoma
K-562 leukemia = test system: K-562 leukemia
COLO 205 colon = test system: COLO 205 colon
CCRF-CEM leukemia = test system: CCRF-CEM leukemia
MOLT-4 leukemia = test system: MOLT-4 leukemia
SF-295 CNS = test system: SF-295 CNS
MALME-3M melanoma = test system: MALME-3M melanoma
UACC-62 melanoma = test system: UACC-62 melanoma
UACC-257 melanoma = test system: UACC-257 melanoma
NCI-H23 lung = test system: NCI-H23 lung
T-47D breast = test system: T-47D breast
HCT-116 colon = test system: HCT-116 colon
786-0 renal = test system: 786-0 renal
M14 melanoma = test system: M14 melanoma
SW-620 colon = test system: SW-620 colon
RXF 393 renal = test system: RXF 393 renal

SMILES: CN(C(=O)CSc1ccc2ccccc2c1)[C@H]1CCCC[C@H]1N1CCCC1
- TGI (NCI/ADR-RES ovarian): > 100 µM
- TGI (KM12 colon): > 100 µM
- TGI (OVCAR-3 ovarian): > 100 µM
- TGI (HS 578T breast): 82.8 µM
- TGI (U251 CNS): > 100 µM
- TGI (RPMI-8226 leukemia): 51.9 µM
- TGI (HCT-15 colon): > 100 µM
- TGI (UO-31 renal): 75.6 µM
- TGI (SF-268 CNS): > 100 µM
- TGI (NCI-H226 lung): 33.3 µM
- TGI (BT-549 breast): 58.6 µM
- TGI (ACHN renal): > 100 µM
- TGI (CAKI-1 renal): > 100 µM
- TGI (MCF7 breast): > 100 µM
- TGI (MDA-N): 54.2 µM
- TGI (NCI-H522 lung): 41 µM
- TGI (EKVX NSCLC): > 100 µM
- TGI (DU-145 prostate): > 100 µM
- TGI (SR leukemia): 48.8 µM
- TGI (MDA-MB-435): 75 µM
- TGI (OVCAR-4 ovarian): > 100 µM
- TGI (TK-10 renal): 60.4 µM
- TGI (PC-3 prostate): 91 µM
- TGI (HOP-92 NSCLC): > 100 µM
- TGI (HOP-62 NSCLC): > 100 µM
- TGI (HCC-2998 colon): 31.9 µM
- TGI (SN12C renal): > 100 µM
- TGI (SK-MEL-5 melanoma): 29.9 µM
- TGI (SK-OV-3 ovarian): > 100 µM
- TGI (SK-MEL-28 melanoma): > 100 µM
- TGI (SNB-19 CNS): > 100 µM
- TGI (NCI-H460 lung): 45.8 µM
- TGI (OVCAR-5 ovarian): 56.7 µM
- TGI (OVCAR-8 ovarian): > 100 µM
- TGI (A498 renal): 33.5 µM
- TGI (SF-539 CNS): 30.9 µM
- TGI (A549 NSCLC): > 100 µM
- TGI (SNB-75 CNS): > 100 µM
- TGI (NCI-H322M lung): > 100 µM
- TGI (HL-60(TB) leukemia): 42.3 µM
- TGI (HT29 colon): 32.7 µM
- TGI (MDA-MB-231 breast): 58.9 µM
- TGI (SK-MEL-2 melanoma): 39.3 µM
- TGI (LOX IMVI melanoma): 30.7 µM
- TGI (K-562 leukemia): 45.4 µM
- TGI (COLO 205 colon): 32.9 µM
- TGI (CCRF-CEM leukemia): 55 µM
- TGI (MOLT-4 leukemia): 82 µM
- TGI (SF-295 CNS): 52.6 µM
- TGI (MALME-3M melanoma): 29.1 µM
- TGI (UACC-62 melanoma): 50.4 µM
- TGI (UACC-257 melanoma): 38.7 µM
- TGI (NCI-H23 lung): > 100 µM
- TGI (T-47D breast): > 100 µM
- TGI (HCT-116 colon): > 100 µM
- TGI (786-0 renal): 32.8 µM
- TGI (M14 melanoma): 29.2 µM
- TGI (SW-620 colon): > 100 µM
- TGI (RXF 393 renal): > 100 µM
